Laboratory results: patent publication US8207193B2 (priority 2006, dated 2012)

Protein sequences, listed by entry. Tags and fused reporters are not part of them.
UniProt P20309, whole entry: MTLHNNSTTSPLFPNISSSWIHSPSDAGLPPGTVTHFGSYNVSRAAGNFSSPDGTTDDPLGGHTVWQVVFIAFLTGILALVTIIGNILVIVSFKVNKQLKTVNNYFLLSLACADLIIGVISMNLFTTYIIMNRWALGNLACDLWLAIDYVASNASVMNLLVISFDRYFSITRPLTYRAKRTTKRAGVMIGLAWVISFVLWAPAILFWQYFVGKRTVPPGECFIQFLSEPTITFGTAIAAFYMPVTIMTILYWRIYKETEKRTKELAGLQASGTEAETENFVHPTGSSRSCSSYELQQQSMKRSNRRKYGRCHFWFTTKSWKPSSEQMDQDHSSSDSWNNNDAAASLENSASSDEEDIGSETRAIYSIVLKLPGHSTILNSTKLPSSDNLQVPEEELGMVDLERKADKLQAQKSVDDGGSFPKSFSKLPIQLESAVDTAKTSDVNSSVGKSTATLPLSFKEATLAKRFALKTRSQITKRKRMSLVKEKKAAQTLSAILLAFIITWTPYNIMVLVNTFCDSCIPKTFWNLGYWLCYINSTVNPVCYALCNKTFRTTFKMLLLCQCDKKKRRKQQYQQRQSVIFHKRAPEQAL

Molecular target: human muscarinic acetylcholine M3 receptor (M3-ACh) (Homo sapiens, UniProt P20309)

O=C(O[C@H]1CN2CCC1CC2)C1(c2ccccc2)CCCC1
pIC50 of comparative compounds containing a cyclopentyl (C5) ring in place of cycloheptyl (C7) (M3, Table 3, C5): 8.7 (Comp Ex. 1)

O=C(O[C@H]1CN2CCC1CC2)C1(c2ccccc2)CCCCCC1 [listing 1 of 2 here]
IC50 (read-out: M3 binding IC50, class symbols, Table 2): < 2 nM

O=C(O[C@H]1CN2CCC1CC2)C1(c2ccccc2)CCCCC1
pIC50 of comparative compounds containing a cyclohexyl (C6) ring in place of cycloheptyl (C7) (M3, Table 3, C6): 8.9 (Comp Ex. 4)

O=C(O[C@H]1CN2CCC1CC2)C1(c2ccccc2)CCCCCC1 [listing 2 of 2 here]
pIC50 of cycloheptyl (C7) compound (M3, Table 3, C7): 10.2 (Ex. 1) | pIC50 ([3H]NMS 0.2 nM, CHO-K1 membranes, Table 1): 10.2
